By UniProt entry, the sequences of proteins in these tests, tags left out. Residues count along the entry.
UniProt P07339, 65-412 limits assumed: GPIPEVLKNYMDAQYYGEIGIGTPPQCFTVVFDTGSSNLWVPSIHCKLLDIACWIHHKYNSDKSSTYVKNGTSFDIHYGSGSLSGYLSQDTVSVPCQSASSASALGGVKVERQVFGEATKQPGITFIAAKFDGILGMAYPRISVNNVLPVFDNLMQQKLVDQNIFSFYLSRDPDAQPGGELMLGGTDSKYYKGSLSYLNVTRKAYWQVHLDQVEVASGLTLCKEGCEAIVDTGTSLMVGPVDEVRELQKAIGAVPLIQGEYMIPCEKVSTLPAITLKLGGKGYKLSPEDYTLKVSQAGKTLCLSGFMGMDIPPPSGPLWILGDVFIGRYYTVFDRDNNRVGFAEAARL

According to US7560482B2, “Inhibitors of plasmepsins” (The Johns Hopkins University, priority 2001, dated 2009):

Target: human Cathepsin D (Homo sapiens, UniProt P07339)
Experiment: Cathepsin D inhibition assay, hydrolysis of chromogenic substrate
Settings: read-out: Ki CatD; 25° C., 10 mM sodium formate, 2% DMSO, pH 4.0; fit to competitive inhibition
Experimental: The specific activity of plasmepsin II from Plasmodium falciparum (Plm II) cloned in and purified from Escherchia coli and commercially available human Cathepsin D were measured by following the hydrolysis of the chromogenic substrate Ala-Leu-Glu-Arg-Thr-nPhe-Phe-Ser-Phe-Pro-Thr-OH (California Peptide Research Inc., Napa, Calif.). The decrease in absorbance upon hydrolysis is monitored at 300 nm. Typical Plasmepsin II preparations hydrolyze chromogenic substrate at 4-5 s^−1 at 37° C. The inhibition assays were performed at 25° C. in 10 mM sodium formate, 2% DMSO, pH 4.0. These pH conditions mimic the conditions in the food vacuole of the parasite. Under the conditions of the assays the Km for plasmepsin II is 20 μM and for human Cathepsin D is 130 μM. Inhibition constants (Ki) for the inhibitors are obtained at the desired temperature and solvent conditions by measuring the rate of substrate hydrolysis at increasing amounts of inhibitors. Exemplary results from three compounds (KNI-10033, KNI-10030 and KNI-10006) are shown in FIG. 7A-C, and the results obtained with all KNI compounds tested are given in Table 1.

SMILES	Ki [µM]
C[C@@H](O)[C@H](NC(=O)COc1cccc2cnccc12)C(=O)N[C@@H](Cc1ccccc1)[C@H](O)C(=O)N1CSC(C)(C)[C@H]1C(=O)NC(C)(C)C	38.1
Cc1c(O)cccc1C(=O)N[C@@H](Cc1ccccc1)[C@H](O)C(=O)N1CSC[C@H]1C(=O)NC(C)(C)C	37.7
